Values quoted from earlier work as cited in patent US20120283096A1, “AGENT FOR IMPROVING PLANT GROWTH, SEEDS, AND METHOD FOR IMPROVING PLANT GROWTH” (Incorporated Administrative Agency National Agricu lture …, priority 2010, published 2012).

Conditions: in water, powder, cited from earlier work

SMILES: [Ca+2].[O]=[Mo](=[O])([O-])[O-] [Calcium molybdate]
- Water solubility: Slightly soluble (has a percentage of solubility of 10% by weight or lower with respect to water)
- Water solubility (listed as calcium molybdate): slightly soluble

Like-named read-outs stand apart in the source and are kept apart here.
